Binding of CDR-mutated scFvs to a peptide of the spike HR2 region

From the AlphaSeq antibody data of Engelhart et al. 2022 (doi:10.1038/s41597-022-01779-4), copy in the FLAb collection.

Target: peptide PDVDLGDISGINAS, taken from heptad repeat 2 (HR2) of SARS-CoV-2 spike.

Ab-91 is the parent antibody, in scFv form: VL, then a 15-residue (Gly4Ser)3 linker, then VH. The light chain is unchanged in all variants.
VL: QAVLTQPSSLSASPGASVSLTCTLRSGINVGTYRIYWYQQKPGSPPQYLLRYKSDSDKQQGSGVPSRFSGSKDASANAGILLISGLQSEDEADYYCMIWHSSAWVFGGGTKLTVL
VH: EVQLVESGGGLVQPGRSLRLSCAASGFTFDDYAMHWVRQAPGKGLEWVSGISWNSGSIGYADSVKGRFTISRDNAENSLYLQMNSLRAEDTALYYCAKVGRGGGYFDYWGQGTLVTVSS

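The parent was found by panning a naive human phage display library on the peptide. In library AAYL51, one, two or three CDR residues were substituted; doubles and triples were drawn at random. In AlphaSeq, yeast of one mating type display the scFv and yeast of the other type display the target. The frequency of each diploid, read from paired DNA barcodes, reflects how well the two displayed proteins bind. A regression on co-assayed BCL2-family reference pairs converts the normalised counts of each replicate to an apparent Kd. The assay was run in three technical replicates.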

Variants are written as CDR1, CDR2 and CDR3 of the heavy chain (limits as in the source). Parent: GFTFDDYAMH, GISWNSGSIGYADSVK, VGRGGGYFDY.
Values are log10 of the apparent Kd in nM; lower means stronger binding.
A mean of the replicates is given; it leaves out those without a signal.
An entry "n.d." has no value in the source: the pair was not observed among the diploids in that replicate. This suggests poor binding but is not conclusive.
Background: pairings of library AAYL51 with three empty control strains gave a value in 21% of cases (median 4.54, 5th percentile 3.26). Values in that range, when seen in few replicates, are hard to tell from nonspecific mating. Also given: how often the same scFv was detected with the empty control strains, with their mean in brackets.
Parent in this assay: reference entry 1.86, copy in this library 0.88.

CDR-H1	CDR-H2	CDR-H3	replicates, log10 nM	mean, log10 nM	signal with controls
GFTFDDYAMG	GISWNSGSIVYADSVK	VGRGGGFFDY	n.d. n.d. n.d.	n.d.	1/9 (3.33)
GFTFDGYAMH	GISWNSGSIDYADSVK	VGRGGGYFDY	n.d. n.d. n.d.	n.d.	0/9
GFTFDDYAMH	TISWNSGSIGYADSPK	CGRGGGYFDY	n.d. n.d. n.d.	n.d.	0/9
GFTFDDYAMH	GISWNSISIGYADQVK	VGRGGGYYDY	5.35 4.64 n.d.	4.99	4/9 (4.47)
GFTMDDYAMH	YISWNSGSIKYADSVK	VGRGGGYFDY	3.80 n.d. n.d.	3.80	0/9
GFTFDLYAMH	GISWNSGSIQYADSVK	VGRGGGYFDA	n.d. n.d. n.d.	n.d.	1/9 (4.40)
GFTQDDYAMH	GISWNSGSIGYADSVK	VGRGGVYFPY	n.d. 3.61 n.d.	3.61	0/9
CFTFDDYIMH	GISWNSGSIGYADEVK	VGRGGGYFDY	n.d. n.d. n.d.	n.d.	1/9 (3.65)
GKTFDDYAMH	GISRNSGSIGYADSVK	VGRGGGYFWY	3.63 n.d. n.d.	3.63	0/9
GFTFDDYAMH	GISWNSGSIGSADSVK	VGRGHGYFVY	n.d. n.d. n.d.	n.d.	0/9
GFTFDDYAMH	GISNNSGSIYYADSWK	VGRGGGYFDY	4.50 4.78 n.d.	4.64	2/9 (4.68)
GFTFDDYAMH	GISGNSGHIGYADSVK	PGRGGGYFDY	1.10 2.14 0.92	1.39	0/9
GFTFDDYAAH	GISWNSGSIGRLDSVK	VGRGGGYFDY	n.d. n.d. n.d.	n.d.	3/9 (4.14)
GFTFDDYHMH	SISWNSGSIGYADSVK	IGRGGGYFDY	n.d. n.d. n.d.	n.d.	1/9 (2.79)
GFTFDDYAMH	GRSWNSGSIGYADSVK	VGRQGGTFDY	4.87 5.38 n.d.	5.13	2/9 (4.99)
GFTFDDYAMH	GISWNSWSIMYADSLK	VGRGGGYFDY	n.d. n.d. n.d.	n.d.	1/9 (3.22)
GFTFDDCAMH	GISWNSGSIGYADSVR	VGRGGGYFLY	n.d. 5.39 n.d.	5.39	2/9 (4.39)
GFTFWDYAMH	GISWMCGSIGYADSVK	VGRGGGYFDY	4.38 5.32 n.d.	4.85	2/9 (3.77)
GFTFDDYAMW	YKSWNSGSIGYADSVK	VGRGGGYFDY	n.d. n.d. n.d.	n.d.	0/9
GFTFDDYAMH	GISWNSGSHGYACSVK	VGYGGGYFDY	2.25 2.36 1.90	2.17	1/9 (3.90)
GFTFDDYVRH	GISQNSGSIGYADSVK	VGRGGGYFDY	n.d. n.d. n.d.	n.d.	0/9
GFTFDDYAMH	GISWYSNSIGYADSVA	VGRGGGYFDY	4.72 3.04 n.d.	3.88	1/9 (3.58)
GFTFMDYACH	GISWNSGSNGYADSVK	VGRGGGYFDY	n.d. 5.14 n.d.	5.14	4/9 (4.69)
GFNFDDYAMH	GISWNCGSIGYAWSVK	VGRGGGYFDY	n.d. 2.69 n.d.	2.69	1/9 (3.67)
GFTFDDTAMH	GISWNSGSIGYFDSVK	VGRGGGYFDY	3.09 n.d. 4.16	3.63	3/9 (4.24)
GFTFDIYAMH	GISWNLGSIGYADSVK	VGRGGGYDDY	n.d. n.d. n.d.	n.d.	0/9
GFTFDDYAMH	GISRESGSIGYADSVK	DGRGGGYFDY	1.50 1.41 0.90	1.27	5/9 (4.90)
GFTFDDYAMH	GNMWNSGSIGYTDSVK	VGRGGGYFDY	5.23 4.82 5.18	5.08	3/9 (4.70)
GFTFDDYAMH	GISWNSGSIGYAVSVK	VGRGGRYKDY	n.d. n.d. 3.71	3.71	0/9
GFNFDDYAMH	GISWESGSIQYADSVK	VGRGGGYFDY	n.d. n.d. 2.32	2.32	2/9 (4.06)
GKTFDDYAMH	GISWNSGSIGYADSVM	VRRGGGYFDY	n.d. n.d. n.d.	n.d.	0/9
GFTFDDYAMH	GISWNSWSIGKSDSVK	VGRGGGYFDY	n.d. 3.83 n.d.	3.83	0/9
GFTFDCYAMH	KISWNSMSIGYADSVK	VGRGGGYFDY	n.d. n.d. n.d.	n.d.	1/9 (2.94)
GFTFDDFAMH	GISWNSGSIGYADSEK	VGRGGGYFHY	n.d. 5.02 n.d.	5.02	0/9
GFTFDDYAMH	RISWNSGSRGYADSVK	VGRGGGYFDY	n.d. n.d. n.d.	n.d.	4/9 (4.76)
GFTFDDYAMH	GISWNSGSSGYADSVK	VGRGGGYDDT	n.d. 4.37 4.85	4.61	3/9 (4.46)
GFTFWDYAMH	GISWDSGSIGGADSVK	VGRGGGYFDY	n.d. n.d. n.d.	n.d.	0/9
GFTFDDYAMH	GISWNSGSIGGAESVK	VGRGGGYFDD	n.d. n.d. n.d.	n.d.	1/9 (4.60)
GFTFDKYAMH	GISWNSGSIGYADSVK	VGERGGYFDY	2.14 n.d. 3.00	2.57	0/9
GFTFDDYAMH	GISWNSGVIGYADSVK	VGRGGGIFDY	n.d. n.d. n.d.	n.d.	1/9 (3.99)
GPTFDDYAMH	GISWNSGYIGYDDSVK	VGRGGGYFDY	4.64 5.27 n.d.	4.96	5/9 (5.09)

The last 5 entries again:

{"CDR-H1": "GFTFWDYAMH", "CDR-H2": "GISWDSGSIGGADSVK", "CDR-H3": "VGRGGGYFDY", "replicates, log10 nM": "n.d. n.d. n.d.", "mean, log10 nM": "n.d.", "signal with controls": "0/9"}
{"CDR-H1": "GFTFDDYAMH", "CDR-H2": "GISWNSGSIGGAESVK", "CDR-H3": "VGRGGGYFDD", "replicates, log10 nM": "n.d. n.d. n.d.", "mean, log10 nM": "n.d.", "signal with controls": "1/9 (4.60)"}
{"CDR-H1": "GFTFDKYAMH", "CDR-H2": "GISWNSGSIGYADSVK", "CDR-H3": "VGERGGYFDY", "replicates, log10 nM": "2.14 n.d. 3.00", "mean, log10 nM": "2.57", "signal with controls": "0/9"}
{"CDR-H1": "GFTFDDYAMH", "CDR-H2": "GISWNSGVIGYADSVK", "CDR-H3": "VGRGGGIFDY", "replicates, log10 nM": "n.d. n.d. n.d.", "mean, log10 nM": "n.d.", "signal with controls": "1/9 (3.99)"}
{"CDR-H1": "GPTFDDYAMH", "CDR-H2": "GISWNSGYIGYDDSVK", "CDR-H3": "VGRGGGYFDY", "replicates, log10 nM": "4.64 5.27 n.d.", "mean, log10 nM": "4.96", "signal with controls": "5/9 (5.09)"}